# scFv variants of Ab-91 (heavy chain) against a SARS-CoV-2 spike peptide

Values reported by Engelhart et al. 2022, doi:10.1038/s41597-022-01779-4 (FLAb copy).

Target: peptide PDVDLGDISGINAS, taken from heptad repeat 2 (HR2) of SARS-CoV-2 spike.

Parent scFv Ab-91: VL joined to VH by a (GGGGS)3 linker. Changes lie in the heavy chain CDRs alone.
VL: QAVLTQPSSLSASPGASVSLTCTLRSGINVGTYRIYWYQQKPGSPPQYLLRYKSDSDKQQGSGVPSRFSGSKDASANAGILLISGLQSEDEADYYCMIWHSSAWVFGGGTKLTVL
VH: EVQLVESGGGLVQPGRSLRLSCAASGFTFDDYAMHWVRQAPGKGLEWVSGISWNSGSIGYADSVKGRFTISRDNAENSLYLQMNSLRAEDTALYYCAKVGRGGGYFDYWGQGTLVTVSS

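AAYL51 was designed without a model: most single CDR substitutions and a random sample of double and triple ones. Affinity was read by AlphaSeq, a pooled yeast mating assay with surface-displayed partners. Pairs that bind mate more often; barcode pairs of the diploids are counted by sequencing. The ratio of observed to expected reads was calibrated, replicate by replicate, on BCL2-family standards whose Kd was known from biolayer interferometry. Each pool was mated in three replicate cultures.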

Variants are written as CDR1, CDR2 and CDR3 of the heavy chain (limits as in the source). Parent: GFTFDDYAMH, GISWNSGSIGYADSVK, VGRGGGYFDY. Numbers give log10(Kd / nM), so 0 is 1 nM and 3 is 1 µM. Smaller is tighter. "n.d." means that the variant was in the library but no mating with the target was seen in that replicate; the authors take this as a sign of poor binding, and no number exists. Nonspecific signal, from three strains lacking the peptide, appeared in 21% of pairings of library AAYL51, centred on 4.54 (5% of these signals below 3.26); values are not corrected for it. Also given: how often the same scFv was detected with the empty control strains, with their mean in brackets. Parent in this assay: reference entry 1.86, copy in this library 0.88.

CDR-H1,CDR-H2,CDR-H3,log10 Kd (nM) by replicate,signal with controls
GFTFDDYAME,GISWISGSIGYADSVK,VGRGGGRFDY,n.d. / n.d. / n.d.,2/9 (5.18)
GFTFDDDAMH,GISWNSGSIGYADSAL,VGRGGGYFDY,n.d. / n.d. / n.d.,0/9
GPTFDDYAMH,GISWNSGSIGYADSVK,VGRQTGYFDY,n.d. / n.d. / n.d.,0/9
GFTFDDYAMW,GISWNSGSIGTATSVK,VGRGGGYFDY,n.d. / n.d. / n.d.,0/9
GCTFDDYAMH,NISWNSGSIGYADSVK,VGRGGGYFDN,4.66 / 5.33 / 4.44,7/9 (4.97)
GFTFDDYAMH,GISWNSGYIGYADSKK,VGRGGGYQDY,n.d. / n.d. / n.d.,0/9
GFNFDDYAMH,MISWNSGSIGYADSVK,VGRGGGYFIY,n.d. / n.d. / n.d.,0/9
GDTFDDYAMH,SISWNSGSIGYADSVK,VGRGGGKFDY,n.d. / n.d. / n.d.,2/9 (3.47)
GFTFDDYAMH,GIIWNYGSIGLADSVK,VGRGGGYFDY,3.28 / 5.68 / n.d.,1/9 (3.01)
GFTFDDYAMH,GISWNSESIGHADSVK,QGRGGGYFDY,5.22 / 4.06 / n.d.,2/9 (3.89)
GFTFDDYAMH,GISWNSGSIGYTDSVA,VGRYGGYFDY,3.05 / n.d. / n.d.,0/9
GDTFDDYAMH,GISWGSGSIGYADSVE,VGRGGGYFDY,n.d. / n.d. / n.d.,0/9
GFTFDDYAMH,GISWNSGSIGYCHSYK,VGRGGGYFDY,n.d. / n.d. / n.d.,3/9 (4.44)
YFTFDDYANH,EISWNSGSIGYADSVK,VGRGGGYFDY,3.64 / n.d. / n.d.,2/9 (3.89)
GFTFDDYAMH,GISWCSGSIGYADSVK,VGRGAMYFDY,n.d. / n.d. / n.d.,0/9
GFTFDDYAIH,GISWNSASIGYADSAK,VGRGGGYFDY,3.15 / 3.49 / 4.40,3/9 (4.85)
GVTFDDVAMH,GISWNSGSIGYPDSVK,VGRGGGYFDY,5.31 / n.d. / 5.12,7/9 (4.70)
GFTFDDYAMH,GGSPNSGSIGYGDSVK,VGRGGGYFDY,n.d. / n.d. / n.d.,0/9
GFTTHDYAIH,GISWNSGSIGYADSVK,VGRGGGYFDY,n.d. / 4.21 / n.d.,1/9 (4.51)
GFTFDDYAHH,GISWNSGSIGQMDSVK,VGRGGGYFDY,n.d. / n.d. / n.d.,0/9
GFTFDDYPMH,GISWNSGSSGYADSVK,SGRGGGYFDY,4.27 / 5.53 / n.d.,6/9 (4.76)
GFTFDDYAMH,GISWNIGSIGYADSVK,VGRGPGYFDY,n.d. / n.d. / n.d.,0/9
GFTFDDYAVH,GISWNSGSIGYWDSVK,VGRGGGYFDY,n.d. / n.d. / n.d.,3/9 (4.47)
GFTFDDTAMH,EISWNSGNIGYADSVK,VGRGGGYFDY,3.32 / n.d. / n.d.,1/9 (3.77)
GFTFDDYAMH,GISWNSGSIGYAMSVK,VGRWGGYFPY,4.74 / n.d. / 5.47,2/9 (5.64)
GFTFDDYAMH,GISWNSGSIGYADSDK,VGYGLGYFDY,n.d. / 5.34 / 5.46,7/9 (5.16)
GFTPDDYACH,GISWNSGSIGYADSVK,VGRGGGQFDY,4.56 / 3.79 / 3.93,6/9 (5.28)
GFTYDDYAMH,GWSWNSGSIGYADSVK,VGRGGGYFDY,n.d. / n.d. / n.d.,0/9
GFTFDDYAMI,GISWNSGSIGYADSVK,VGTGGGMFDY,n.d. / 4.06 / n.d.,3/9 (4.21)
GFTFDDYAMH,GISWNSGSIGYPDSWK,VGRGGGYVDY,n.d. / 3.39 / n.d.,0/9
GFTFDDYAMN,GISWNSGNIGYADSVK,VGRGGGYFDY,n.d. / n.d. / n.d.,1/9 (4.21)
GFTFDDYAMH,GISWNSRSIGYADSVP,QGRGGGYFDY,n.d. / n.d. / n.d.,3/9 (4.83)
GFTFDDYAMH,GIPWNSGSIGYADSVK,VGRGSGIFDY,n.d. / n.d. / n.d.,0/9
GFTFDDPAMH,GISWNSGSIGYADSVP,VGIGGGYFDY,n.d. / n.d. / n.d.,1/9 (5.13)
GFTFDDYAMH,GPSWNSGSIGYADSIK,VGRGCGYFDY,4.74 / 5.63 / n.d.,5/9 (5.27)
GFTFDDYAMH,GIVWNSGSIGYAISVK,VGRGGGDFDY,n.d. / 4.99 / n.d.,4/9 (4.00)
GFTFQDYAMH,GISTNSGSIGYLDSVK,VGRGGGYFDY,2.00 / 1.36 / 1.29,0/9
QFTFDDYAMH,GISWNSGRIGYADSVS,VGRGGGYFDY,6.11 / n.d. / n.d.,4/9 (4.66)
WFTFDDYAMH,GLSWNSGSIIYADSVK,VGRGGGYFDY,n.d. / n.d. / n.d.,2/9 (4.57)
GFTFDDYAMH,GISWNSGSIGYADSVF,VGRFGGYFDY,1.00 / 0.94 / 0.20,3/9 (4.15)
GFTFDDYALH,GISWNSGSIGYADSVQ,VGREGGYFDY,n.d. / 5.36 / n.d.,4/9 (4.61)
GFTFDDYAMH,EISWNSGSIGYADSVK,VGRLGGHFDY,n.d. / 4.34 / n.d.,0/9
GFTFDDYAMH,GISVNSGSIGYADSVK,HNRGGGYFDY,n.d. / n.d. / 5.38,4/9 (4.86)
YFTFDDYAMH,GISWNSGSIGYADSVK,VRRGGVYFDY,n.d. / 4.60 / n.d.,2/9 (5.11)
GFTFDDYAMH,NIIWNSGSIMYADSVK,VGRGGGYFDY,n.d. / 3.29 / n.d.,1/9 (5.68)
GFTFDDGAMH,GISWNWGSIGYADSVK,VGRGGEYFDY,n.d. / n.d. / n.d.,0/9

Extract of 6 entries:

{"CDR-H1": "GFTFDDYAMH", "CDR-H2": "GIIWNYGSIGLADSVK", "CDR-H3": "VGRGGGYFDY", "log10 Kd (nM) by replicate": "3.28 / 5.68 / n.d.", "signal with controls": "1/9 (3.01)"}
{"CDR-H1": "GFTFDDYAMH", "CDR-H2": "GISWNSGSIGYTDSVA", "CDR-H3": "VGRYGGYFDY", "log10 Kd (nM) by replicate": "3.05 / n.d. / n.d.", "signal with controls": "0/9"}
{"CDR-H1": "GFNFDDYAMH", "CDR-H2": "MISWNSGSIGYADSVK", "CDR-H3": "VGRGGGYFIY", "log10 Kd (nM) by replicate": "n.d. / n.d. / n.d.", "signal with controls": "0/9"}
{"CDR-H1": "QFTFDDYAMH", "CDR-H2": "GISWNSGRIGYADSVS", "CDR-H3": "VGRGGGYFDY", "log10 Kd (nM) by replicate": "6.11 / n.d. / n.d.", "signal with controls": "4/9 (4.66)"}
{"CDR-H1": "GFTFDDYAMH", "CDR-H2": "GISVNSGSIGYADSVK", "CDR-H3": "HNRGGGYFDY", "log10 Kd (nM) by replicate": "n.d. / n.d. / 5.38", "signal with controls": "4/9 (4.86)"}
{"CDR-H1": "GFTFDDYAMH", "CDR-H2": "GISWNSGSIGYADSVF", "CDR-H3": "VGRFGGYFDY", "log10 Kd (nM) by replicate": "1.00 / 0.94 / 0.20", "signal with controls": "3/9 (4.15)"}